IC50 data for one compound are collected here from US20100249408A1, “USE OF NOVEL COMPOUND HAVING AFFINITY FOR AMYLOID, AND PROCESS FOR PRODUCTION OF THE SAME” (NIHON MEDI-PHYSICS CO., LTD., priority 2007, published 2010).

Sequences of proteins named here, by UniProt entry; tags and fusion partners are left off. Residues count along the entry.
UniProt P05067, 672-711 limits assumed: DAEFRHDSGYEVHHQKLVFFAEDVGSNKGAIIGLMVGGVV

The target in the experiment is T1, amyloid (aggregated Aβ1-40) (Homo sapiens, UniProt P05067).
T1 construct: Aβ1-40 (Peptide Institute) was dissolved in phosphate buffer (pH 7.4); purchased Peptide Institute
Kind of experiment: Measurement of amyloid affinity: in vitro binding test, inhibition of [125I]3′-I-BTA-0 binding. The following applies: inhibition of [125I]3′-I-BTA-0 (400 pmol/L) binding to aggregated Aβ1-40 (1 μmol/L), pH 7.4, 22° C., 3 hours. On the procedure: Affinity of the present compounds with amyloid was examined by the following in vitro binding tests.
(1) Aβ1-40 (Peptide Institute) was dissolved in phosphate buffer (pH 7.4) and shaken at 37° C. for 62-72 hours, to obtain a suspension of aggregated Aβ (concentration: 1 mg/mL equivalent, hereinafter referred to as amyloid suspension in these Examples).
(3) According to the method described in a literature (Wang, Y., et al., J. Labeled Compounds Radiopharmaceut. 44, 5239 (2001)), [^125I]2-(3′-iodo-4′-aminophenyl)benzothiazole (hereinafter referred to as [^125I]3′-I-BTA-0) was prepared from a labeling precursor 2-(4′-aminophenyl)benzothiazole, and dissolved in ethanol. […]
(7) The glass fiber filter used for the filtration of each sample solution was washed with a 0.1% bovine serum albumin-containing phosphate buffer (pH 7.4) (0.5 mL×5), and radioactivity of the glass fiber filter was measured with an autowell gamma system (manufactured by Aloka, Type: ARC-301B).
(8) Separately, a solution containing 15 μmol/L of 6-Me-BTA-2, 400 pmol/L of [^125I]3′-I-BTA-0 and 1 μmol/L of Aβ1-40 in a 0.1% bovine serum albumin-containing phosphate buffer (pH 7.4) was prepared and subjected to the same procedures as described above in (6) and (7) to measure a radioactivity level. […]

In general, IC50 refers to the midpoint of a concentration-inhibition curve. For `Cc1ccc2c(c1)sc(-c1ccc(N(C)C)cc1)[n+]2C` [Thioflavin T, reference compound], the IC50 is over 1000 nM.
